These are literature values, as cited in patent US20160271257A1, “Low Molecular Weight Immune-Modulators As Adjuvants for Specific Immunotherapy” (PLS-DESIGN GMBH, priority 2013, published 2016).

For the substance VLGGG CALLRC IPALD SLTPA NED [p277], the “mice developing diabetes within 30 days” value (i.p. 50 μg in IFA, two weeks later MT-hsp65 (50 μg) in IFA) is “None of 10”. The “mice developing blood glucose higher than 130 mg/dl within 3 weeks” value (single i.p. 50 μg in IFA) is listed as “None of 7”.
